Measured values published in ChEMBL document CHEMBL3785077 (J Med Chem, 2016).

Protein sequences, listed by entry. Tags and fused reporters are not part of them.
UniProt P81908, whole entry: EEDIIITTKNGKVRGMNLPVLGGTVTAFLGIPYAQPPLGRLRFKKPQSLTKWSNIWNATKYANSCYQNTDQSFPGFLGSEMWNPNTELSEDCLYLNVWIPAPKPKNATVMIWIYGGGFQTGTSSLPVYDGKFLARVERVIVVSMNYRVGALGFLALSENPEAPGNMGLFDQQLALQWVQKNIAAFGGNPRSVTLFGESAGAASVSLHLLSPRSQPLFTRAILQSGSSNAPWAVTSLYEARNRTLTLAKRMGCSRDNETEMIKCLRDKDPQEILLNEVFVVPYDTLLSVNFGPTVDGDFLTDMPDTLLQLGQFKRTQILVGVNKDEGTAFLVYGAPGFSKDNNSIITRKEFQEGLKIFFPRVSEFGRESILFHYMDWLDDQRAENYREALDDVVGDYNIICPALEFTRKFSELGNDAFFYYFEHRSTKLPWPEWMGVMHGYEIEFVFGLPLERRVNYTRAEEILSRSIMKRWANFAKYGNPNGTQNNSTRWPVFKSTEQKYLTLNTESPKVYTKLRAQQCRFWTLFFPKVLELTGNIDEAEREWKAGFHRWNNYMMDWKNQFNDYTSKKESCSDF

Biological target: Cholinesterase (Equus caballus, UniProt P81908)
Assay: Inhibition of equine serum butyrylcholinesterase using […] as substrate preincubated for 30 mins followed by substrate addition measured after 2.5 mins by Ellman's spectrophotometric method
Method in brief: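 Ellman assay at 25 °C in phosphate buffer pH 8.0. Enzyme (AChE from human erythrocytes, BChE from equine or human serum; 2.5 units/mL stock with 2 mg/mL BSA) and DTNB (0.3 mM in assay) preincubated with compound from ethanol stocks (1 nM−1 mM in assay). Acetyl- or butyrylthiocholine added (452 μM in assay), absorbance at 412 nm after 2.5 min. Ethanol control, triplicates, IC50 from activity vs log concentration.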

CNC(=O)Oc1ccc2c(c1)[C@]1(C)CCN(C)[C@@H]1N2C [PHYSOSTIGMINE]
IC50: 78 nM
